{"source": "paper PMC2798171", "molecular_target": "Plasmodium berghei macrophage migration inhibitory factor with C-terminal His6-tag (Plasmodium berghei)", "assay": "crystal structure", "data": [{"substance": "Plasmodium berghei macrophage migration inhibitory factor with C-terminal His6-tag (natural protein)", "values": [{"measurement": "stoichiometry N", "value": 3}]}]}
